Molecular target: BRD4BD1 / YPEL5–WDR26 (Homo sapiens, UniProt O60885+P62699)
Test: Octet BLI, degrader-bound BRD4BD1 binding to immobilized YPEL5–WDR26
Conditions: BRD4BD1 titrated at 5 μM degrader

By UniProt entry, the sequences of proteins in these tests, tags left out. Where a name states a change or a piece, a line headed by the entry shows the natural chain unless it says otherwise.
UniProt P62699: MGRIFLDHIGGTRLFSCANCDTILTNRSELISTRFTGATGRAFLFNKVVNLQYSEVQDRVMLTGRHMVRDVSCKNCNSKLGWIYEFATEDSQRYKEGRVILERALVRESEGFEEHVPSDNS

SMILES: Cc1sc2c(c1C)C(c1ccc(NC(=O)c3cc(Cl)c(S(=O)O)c(Cl)c3)cc1)=N[C@@H](CC(=O)OC(C)(C)C)c1nnc(C)n1-2 [ZZ2-SO2H, 4-((4-((S)-6-(2-(tert-butoxy)-2-oxoethyl)-2,3,9-trimethyl-6H-thieno[3,2-f][1,2,4]triazolo[4,3-a][1,4]diazepin-4-yl)phenyl)carbamoyl)-2,6-dichlorobenzenesulfinic acid]
- Kd: 3.24 ± 0.15 nM
